Source: patent US9579383B2, “Formulations for enhanced bioavailability of orally administered polar agents” (ALA WAI PHARMA, INC., priority 2007, dated 2017)

Test system: Caco-2 cell monolayers
Test: Caco-2 cell permeability assay of peramivir with permeability enhancers
Conditions: enhancer concentration 1% in HBSS; peramivir 15 μg/mL

With “d-alpha-tocopheryl polyethylene glycol 1000 succinate [TPGS]” the “Fold-Enhancement Over Control” value was 28.9 fold and the ng peramivir transported/min was 9.52 ng/min.
